For this test, the target named is T1, VMAT2 (Rattus norvegicus, UniProt Q01827).
T1 construct: from tissue; host or cells: rat forebrain membranes
In words: inhibition of [3H]-DHTBZ binding to rat forebrain membranes.

The chains behind the UniProt entries cited, without tags or fusion partners.
UniProt Q01827, whole entry: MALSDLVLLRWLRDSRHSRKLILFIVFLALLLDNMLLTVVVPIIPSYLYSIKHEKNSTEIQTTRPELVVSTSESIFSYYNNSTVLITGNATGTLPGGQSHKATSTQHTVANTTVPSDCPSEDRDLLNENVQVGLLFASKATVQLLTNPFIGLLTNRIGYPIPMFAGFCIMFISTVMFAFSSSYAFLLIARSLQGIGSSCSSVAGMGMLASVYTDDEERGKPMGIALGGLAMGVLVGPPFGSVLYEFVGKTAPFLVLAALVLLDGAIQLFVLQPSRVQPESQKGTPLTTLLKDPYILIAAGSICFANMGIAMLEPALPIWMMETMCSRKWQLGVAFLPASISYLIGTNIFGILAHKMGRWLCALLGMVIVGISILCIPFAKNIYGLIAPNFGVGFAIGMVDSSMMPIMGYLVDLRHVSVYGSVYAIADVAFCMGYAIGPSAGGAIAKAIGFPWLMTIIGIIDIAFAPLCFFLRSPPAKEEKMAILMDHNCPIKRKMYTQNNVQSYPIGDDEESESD

Take `COc1cc2c(cc1OC)[C@@H]1C[C@@H](O)[C@@H](CC(C)C)CN1CC2` [R,S,S-DHTBZ]: the “affinity weaker than R,R,R-DHTBZ” value is approximately 160 times. With `COc1cc2c(cc1OC)[C@@H]1C[C@H](O)[C@@H](CC(C)C)CN1CC2` [S,S,S-DHTBZ], the “affinity weaker than R,R,R-DHTBZ” value was “approximately 60 times”.

These data come from patent US20210228566A1, “METHODS OF TREATING A NEUROLOGICAL OR PSYCHIATRIC DISORDER” (priority 2018, published 2021).
